CycPeptMPDB entries from one study

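Conditions beyond the assay type are not listed; see the original paper. Other peptides of the study may be missing here. Peptides that the database sets to -10, its floor, are left out.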

PAMPA measures passive passage through an artificial lipid membrane. P is given in units of 10^-6 cm/s (from log10 values with two decimals); larger means faster passage.

PAMPA (10^-6 cm/s),compound
0.69,CC(C)C[C@H]1NC(=O)[C@H]2CCCN2C(=O)C[C@H](Cc2ccccc2)NC(=O)[C@H](CC(C)C)N(C)C(=O)[C@H](C)N(C)C(=O)[C@H]2CCCN2C(=O)[C@H](Cc2ccccc2)NC1=O
0.59,CC(C)C[C@@H]1NC(=O)[C@@H]2CCCN2C(=O)[C@H](CC(C)C)NC(=O)[C@@H](CC(C)C)NC(=O)C[C@H](Cc2ccccc2)NC(=O)[C@H]2CCCN2C(=O)[C@H](Cc2ccccc2)NC1=O
1.7,CC(C)C[C@@H]1C(=O)N(Cc2ccccc2)CC(=O)N2CCC[C@H]2C(=O)N(C)[C@H](CC(C)C)C(=O)N[C@@H](Cc2ccccc2)C(=O)N[C@@H](C)C(=O)N1C
3.8,CC(C)C[C@@H]1NC(=O)CN(Cc2ccccc2)C(=O)C[C@H](Cc2ccccc2)NC(=O)[C@H]2CCCN2C(=O)[C@H](Cc2ccccc2)NC(=O)[C@@H](CC(C)C)N(C)C(=O)[C@@H]2CCCN2C1=O
0.3,CC(C)C[C@@H]1NC(=O)[C@H]2CCCN2C(=O)[C@@H](CC(C)C)NC(=O)[C@@H](CC(C)C)NC(=O)C[C@H](Cc2ccccc2)NC(=O)[C@H](Cc2ccccc2)NC1=O
1.1,CC(C)C[C@@H]1NC(=O)[C@H](C)NC(=O)[C@H](Cc2ccccc2)NC(=O)[C@H](CC(C)C)NC(=O)[C@@H]2CCCN2C(=O)C[C@H](Cc2ccccc2)NC1=O
0.85,CC(C)C[C@@H]1NC(=O)[C@@H](CC(C)C)NC(=O)[C@@H](C)NC(=O)[C@@H]2CCCN2C(=O)[C@H](Cc2ccccc2)NC(=O)[C@@H](CC(C)C)NC(=O)[C@H]2CCCN2C1=O
0.79,CC(C)C[C@@H]1C(=O)N2CCC[C@@H]2C(=O)N[C@H](CC(C)C)C(=O)N[C@@H](Cc2ccccc2)C(=O)N[C@H](C)C(=O)N[C@H](CC(C)C)C(=O)N1C
4.6,CCCN1CC(=O)N(Cc2ccccc2)CC(=O)N(C)[C@@H](CC(C)C)C(=O)N2CCC[C@@H]2C(=O)N(C)[C@H](CC(C)C)C(=O)N[C@@H](Cc2ccccc2)C(=O)N2CCC[C@H]2C1=O
7.8,CC(C)C[C@@H]1C(=O)N[C@@H](Cc2ccccc2)C(=O)N2CCC[C@@H]2C(=O)N[C@H](C)C(=O)N(C)[C@@H](CC(C)C)C(=O)N[C@H](CC(C)C)C(=O)N2CCC[C@H]2C(=O)N1C
0.25,CC(C)C[C@@H]1NC(=O)[C@@H](CC(C)C)NC(=O)[C@@H](C)NC(=O)[C@H]2CCCN2C(=O)[C@H](Cc2ccccc2)NC(=O)[C@@H](CC(C)C)NC(=O)[C@@H]2CCCN2C1=O
0.28,CCCN1CC(=O)N[C@H](CC(C)C)C(=O)N[C@H](CC(C)C)C(=O)N2CCC[C@H]2C(=O)N[C@H](CC(C)C)C(=O)N[C@@H](Cc2ccccc2)C(=O)N2CCC[C@@H]2C1=O
1.8,CC(C)C[C@@H]1NC(=O)[C@@H](C)NC(=O)[C@H](Cc2ccccc2)NC(=O)CN(Cc2ccccc2)C(=O)[C@H]2CCCN2C(=O)CN(Cc2ccccc2)C1=O
5.5,CC(C)C[C@@H]1C(=O)N(C)[C@@H](CC(C)C)C(=O)N2CCC[C@@H]2C(=O)N(Cc2ccccc2)CC(=O)N[C@@H](Cc2ccccc2)C(=O)N[C@H](C)C(=O)N1C
0.79,CC(C)C[C@@H]1NC(=O)[C@H](C)N(C)C(=O)[C@@H]2CCCN2C(=O)[C@H](Cc2ccccc2)NC(=O)[C@H](CC(C)C)N(C)C(=O)[C@H]2CCCN2C(=O)[C@@H](CC(C)C)N(C)C1=O
1.7,CC(C)C[C@H]1NC(=O)[C@@H](C)N(C)C(=O)[C@H](Cc2ccccc2)NC(=O)CN(Cc2ccccc2)C(=O)[C@@H]2CCCN2C(=O)[C@@H](CC(C)C)NC1=O
0.62,CC(C)C[C@@H]1C(=O)N[C@@H](Cc2ccccc2)C(=O)N2CCC[C@@H]2C(=O)N[C@H](C)C(=O)N[C@H](CC(C)C)C(=O)N(Cc2ccccc2)CC(=O)N2CCC[C@H]2C(=O)N1C
2.5,CC(C)C[C@@H]1NC(=O)[C@@H]2CCCN2C(=O)[C@H](CC(C)C)N(C)C(=O)[C@H](CC(C)C)N(C)C(=O)[C@@H](C)NC(=O)[C@H]2CCCN2C(=O)[C@H](Cc2ccccc2)NC1=O
7.8,CCCN1CC(=O)N(C)[C@H](CC(C)C)C(=O)N(C)[C@H](CC(C)C)C(=O)N2CCC[C@H]2C(=O)N(C)[C@H](CC(C)C)C(=O)N[C@@H](Cc2ccccc2)C(=O)N2CCC[C@@H]2C1=O
2.3,CC(C)C[C@@H]1C(=O)N[C@H](CC(C)C)C(=O)N2CCC[C@H]2C(=O)N(C)[C@H](CC(C)C)C(=O)N[C@@H](Cc2ccccc2)C(=O)N2CCC[C@H]2C(=O)N[C@@H](C)C(=O)N1C
2.9,CC(C)C[C@@H]1NC(=O)C[C@H](Cc2ccccc2)NC(=O)[C@H](Cc2ccccc2)NC(=O)[C@@H](CC(C)C)N(C)C(=O)[C@H]2CCCN2C(=O)C[C@H](Cc2ccccc2)NC1=O
1.4,CC(C)C[C@@H]1NC(=O)C[C@H](Cc2ccccc2)NC(=O)[C@@H]2CCCN2C(=O)[C@H](Cc2ccccc2)NC(=O)[C@@H](CC(C)C)NC(=O)[C@H]2CCCN2C(=O)CN(Cc2ccccc2)C1=O
0.18,CC(C)C[C@@H]1NC(=O)[C@H]2CCCN2C(=O)CN(Cc2ccccc2)C(=O)[C@@H](CC(C)C)NC(=O)[C@@H](C)NC(=O)[C@H](Cc2ccccc2)NC1=O

Excerpt, the final 3 entries:

compound,PAMPA (10^-6 cm/s)
CC(C)C[C@@H]1NC(=O)C[C@H](Cc2ccccc2)NC(=O)[C@H](Cc2ccccc2)NC(=O)[C@@H](CC(C)C)N(C)C(=O)[C@H]2CCCN2C(=O)C[C@H](Cc2ccccc2)NC1=O,2.9
CC(C)C[C@@H]1NC(=O)C[C@H](Cc2ccccc2)NC(=O)[C@@H]2CCCN2C(=O)[C@H](Cc2ccccc2)NC(=O)[C@@H](CC(C)C)NC(=O)[C@H]2CCCN2C(=O)CN(Cc2ccccc2)C1=O,1.4
CC(C)C[C@@H]1NC(=O)[C@H]2CCCN2C(=O)CN(Cc2ccccc2)C(=O)[C@@H](CC(C)C)NC(=O)[C@@H](C)NC(=O)[C@H](Cc2ccccc2)NC1=O,0.18

Collected by the curators of CycPeptMPDB (Li et al. 2023) from Townsend et al. 2020, doi:10.26434/chemrxiv.13335941.v1.